{"sequences": {"note": "Amino acid sequences for entries named in this document (tags omitted).", "UniProt P61169, whole entry": "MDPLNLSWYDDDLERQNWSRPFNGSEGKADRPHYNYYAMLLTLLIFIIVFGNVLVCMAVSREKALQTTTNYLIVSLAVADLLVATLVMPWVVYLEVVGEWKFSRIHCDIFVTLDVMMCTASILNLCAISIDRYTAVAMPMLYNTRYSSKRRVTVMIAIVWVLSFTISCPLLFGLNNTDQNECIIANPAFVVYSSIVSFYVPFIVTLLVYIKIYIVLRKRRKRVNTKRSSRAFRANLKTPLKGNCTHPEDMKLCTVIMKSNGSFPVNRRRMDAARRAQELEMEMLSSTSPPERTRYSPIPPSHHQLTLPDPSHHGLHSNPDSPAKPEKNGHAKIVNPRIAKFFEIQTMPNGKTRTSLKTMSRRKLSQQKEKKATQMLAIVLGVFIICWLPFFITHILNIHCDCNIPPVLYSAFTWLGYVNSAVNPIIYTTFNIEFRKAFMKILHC"}, "source": "patent US4465692A", "about": "(Nelson Research & Development Company, priority 1982, dated 1984)", "key": {"[1]": {"biological_target": "D-2 receptor (Rattus norvegicus, UniProt P61169)", "assay": "biochemical"}, "[2]": {"biological_target": "dopamine receptor (Rattus norvegicus, UniProt P61169)", "assay": "biochemical"}}, "data": [{"compound": "CN1CCc2cccc3c2[C@H]1Cc1ccc(O)c(O)c1-3", "note": "[Apomorphine, reference compound]", "values": [{"measurement": "IC50", "setting": "[1]", "value": 1.5, "unit": "µM"}, {"measurement": "IC50", "setting": "[2]", "value": 0.057, "unit": "µM"}]}]}
